Our source for the Ki values is patent US9403822B2, “Apoptosis-inducing agents for the treatment of cancer and immune and autoimmune diseases” (AbbVie Inc., priority 2010, dated 2016).

Amino acid sequences for entries named in this document (tags omitted).
UniProt P10415, whole entry: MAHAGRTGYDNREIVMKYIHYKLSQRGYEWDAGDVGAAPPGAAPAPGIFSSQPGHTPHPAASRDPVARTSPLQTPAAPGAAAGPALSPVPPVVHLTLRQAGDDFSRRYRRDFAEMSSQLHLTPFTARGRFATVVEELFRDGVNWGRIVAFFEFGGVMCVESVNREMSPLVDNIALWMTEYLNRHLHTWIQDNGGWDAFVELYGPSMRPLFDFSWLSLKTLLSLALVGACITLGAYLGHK

Bounds are passed on as bounds.

This assay addresses GST-Bcl-2 (Homo sapiens (Human), UniProt P10415). The assay is described as follows: Time Resolved-Fluorescence Resonance Energy Transfer (TR-FRET) Bcl-2 binding assay. To be noted: F-Bak peptide probe 100 nM, GST-Bcl-2 1 nM, Tb-anti-GST 1 nM; Wang's equation. The method, then: Determination of the utility of compounds having Formula (I) as binders to and inhibitors of anti-apoptotic Bcl-2 proteins was performed using the Time Resolved-Fluorescence Resonance Energy Transfer (TR-FRET) Assay. Tb-anti-GST antibody was purchased from Invitrogen (Catalog No. PV4216). Representative compounds were serially diluted in dimethyl sulfoxide (DMSO) starting at 50 μM (2× starting concentration; 10% DMSO) and 10 μL were transferred into a 384-well plate. […] For each assay, the probe/antibody and protein/probe/antibody were included on each assay plate as negative and positive controls, respectively. Fluorescence was measured on the ENVISION plate reader (Perkin Elmer) using a 340/35 nm excitation filter and 520/525 (F-Bak peptide) and 495/510 nm (Tb-labeled anti-Histidine antibody) emission filters. Inhibition constants (Ki) are shown in TABLE 2 below and were determined using Wang's equation (Wang Z.-X. An Exact Mathematical Expression For Describing Competitive Binding Of Two Different Ligands To A Protein Molecule. FEBS Lett. 1995, 360:111-4).
(In TR-FRET formats the signal depends on donor and acceptor labels being close together.)

In general, Ki refers to the dissociation constant of the complex between target and ligand, obtained from inhibition or displacement. In turn, “trans-4-[(4-{[4-(4-{[2-(4-chlorophenyl)-4,4-dimethylcyclohex-1-en-1-yl]methyl}piperazin-1-yl)-2-(1H-pyrrolo[2,3-b]pyridin-5-yloxy)benzoyl]sulfamoyl}-2-nitrophenoxy)methyl]cyclohexyl dihydrogen phosphate [Example 5]” returned a Ki of less than 0.01 nM.

“(5-{5-(4-{[2-(4-chlorophenyl)-4,4-dimethylcyclohex-1-en-1-yl]methyl}piperazin-1-yl)-2-[({4-[(4-fluorotetrahydro-2H-pyran-4-yl)methoxy]-3-nitrophenyl}sulfonyl)carbamoyl]phenoxy}-7H-pyrrolo[2,3-b]pyridin-7-yl)methyl dihydrogen phosphate [Example 3]” returned an inhibition constant (Ki) of less than 0.01 nM.
